The subject of the assay is Balb/c mice. To be noted: after two vaccinations; adjuvant and F1-CRM antigen adsorbed to alum.

Experimental findings from patent US20230310438A1 (priority 2019, published 2023) are described below.

Molecules are shown by their SMILES.

For the compound `CCCCCCCCCCC[C@H](CC(=O)NCCO[C@@H]1OC(CO)[C@@H](OS(=O)(=O)O)C(NC(=O)C[C@@H](CCCCCCCCCCC)OC(=O)CCCCCCCCC)C1NC(=O)C[C@@H](CCCCCCCCCCC)OC(=O)CCCCCCCCC)OC(=O)CCCCCCCCC` (stereo partly shown), the anti-fentanyl antibody titers result is “dose responsive increase”.
